Earlier results in patent US20050004105A1, “Treatment for a attention-deficit hyperactivity disorder” (priority 2003, published 2005).
Structures can show the parent of a compound that is named as a salt.

Molecular target: α2 receptor
Conditions: rat cortical membranes, [3H]RX 821002; exemplary protocol; read-out: Ki of reference compound, α2 binding assay; cited from earlier work

In the case of `Cc1ccc(N(CC2=NCCN2)c2cccc(O)c2)cc1` [phentolamine mesylate], the Ki is listed as ~3.2 nM.
